Assay results: ChEMBL document CHEMBL5247656, “Discovery of a Potent, Cooperative, and Selective SOS1 PROTAC ZZ151 with In Vivo Antitumor Efficacy in KRAS-Mutant Cancers” (J Med Chem, 2023)

Molecular target: T1, Son of sevenless homolog 1 (Homo sapiens) (UniProt Q07889)
T1 sequence (whole entry): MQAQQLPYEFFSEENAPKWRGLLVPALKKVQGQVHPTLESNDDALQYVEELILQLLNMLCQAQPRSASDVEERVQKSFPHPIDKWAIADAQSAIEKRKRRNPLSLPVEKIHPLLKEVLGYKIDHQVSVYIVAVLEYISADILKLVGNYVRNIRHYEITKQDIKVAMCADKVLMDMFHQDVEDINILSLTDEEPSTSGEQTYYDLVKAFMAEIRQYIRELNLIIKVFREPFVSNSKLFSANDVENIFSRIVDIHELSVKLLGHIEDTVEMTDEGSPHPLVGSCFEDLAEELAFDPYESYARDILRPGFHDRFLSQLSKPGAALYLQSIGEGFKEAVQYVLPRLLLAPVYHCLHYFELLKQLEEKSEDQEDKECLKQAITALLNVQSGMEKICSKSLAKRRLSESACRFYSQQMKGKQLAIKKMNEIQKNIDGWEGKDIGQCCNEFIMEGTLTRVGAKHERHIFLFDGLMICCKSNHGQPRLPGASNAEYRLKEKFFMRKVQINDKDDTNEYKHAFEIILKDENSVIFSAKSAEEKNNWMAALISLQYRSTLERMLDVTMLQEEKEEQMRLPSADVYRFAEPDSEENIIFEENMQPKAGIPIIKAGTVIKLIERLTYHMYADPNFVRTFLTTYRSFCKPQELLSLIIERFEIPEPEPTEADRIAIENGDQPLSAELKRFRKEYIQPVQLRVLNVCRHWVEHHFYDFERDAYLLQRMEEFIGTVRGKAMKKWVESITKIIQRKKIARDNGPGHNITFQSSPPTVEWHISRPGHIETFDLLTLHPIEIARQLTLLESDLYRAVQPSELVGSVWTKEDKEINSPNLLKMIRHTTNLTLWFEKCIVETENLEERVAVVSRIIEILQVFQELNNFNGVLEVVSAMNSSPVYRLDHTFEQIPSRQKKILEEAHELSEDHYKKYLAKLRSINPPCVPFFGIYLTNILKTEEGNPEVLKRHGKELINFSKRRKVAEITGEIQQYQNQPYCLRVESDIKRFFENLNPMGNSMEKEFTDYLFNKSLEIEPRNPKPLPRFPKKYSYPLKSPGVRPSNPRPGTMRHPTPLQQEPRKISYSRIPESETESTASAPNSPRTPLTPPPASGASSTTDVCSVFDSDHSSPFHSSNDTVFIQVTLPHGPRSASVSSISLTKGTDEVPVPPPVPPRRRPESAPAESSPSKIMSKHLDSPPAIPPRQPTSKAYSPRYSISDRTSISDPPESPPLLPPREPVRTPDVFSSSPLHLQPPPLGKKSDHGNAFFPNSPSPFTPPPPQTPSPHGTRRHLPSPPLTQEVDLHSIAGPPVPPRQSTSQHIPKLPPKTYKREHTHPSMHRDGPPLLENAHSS
Assay: Co-operativity factor, ratio of Kd for binding affinity to GST-tagged human SOS1 (564 to 1049 reisudes) expressed in Escherichia coli BL21 (DE3) cells assessed as binary complex formation to Kd for binding affinity to GST-tagged human SOS1 (564 to 1049 residues) expressed in Escherichia coli BL21 (DE3) cells assessed as ternary complex formation in the presence of 6His tagged human VCB

## COc1cc2nc(C)nc(N[C@H](C)c3cc(N)cc(C(F)(F)F)c3)c2cc1C1CCN(C(=O)CCCCCC(=O)N[C@H](C(=O)N2C[C@H](O)C[C@H]2C(=O)N[C@@H](C)c2ccc(-c3scnc3C)cc2)C(C)(C)C)CC1
  Ratio: 11.4
